Experimental findings from ChEMBL document CHEMBL1135773, “Purine and pyrimidine (P2) receptors as drug targets” (J Med Chem, 2002) are described below.

For one experiment, the target named is T1, P2X purinoceptor 4 (Homo sapiens, UniProt Q99571).
T1 sequence (Q99571 whole entry): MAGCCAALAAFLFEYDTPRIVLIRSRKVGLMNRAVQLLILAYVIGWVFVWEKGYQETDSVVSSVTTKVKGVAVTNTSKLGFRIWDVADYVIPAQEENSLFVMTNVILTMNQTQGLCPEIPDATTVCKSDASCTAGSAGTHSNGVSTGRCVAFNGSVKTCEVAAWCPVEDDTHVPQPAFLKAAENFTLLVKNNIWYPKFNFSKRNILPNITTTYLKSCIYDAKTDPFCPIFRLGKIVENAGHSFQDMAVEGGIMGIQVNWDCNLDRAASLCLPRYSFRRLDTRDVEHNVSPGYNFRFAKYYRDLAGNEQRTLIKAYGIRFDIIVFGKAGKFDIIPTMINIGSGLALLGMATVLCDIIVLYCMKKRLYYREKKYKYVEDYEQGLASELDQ
The experiment in a line: Antagonist activity against recombinant human P2X purinoceptor 4 (P2X4). It is filed as functional.

Another experiment deals with T2, P2X purinoceptor 3 (Homo sapiens, UniProt P56373).
T2 sequence (P56373 whole entry): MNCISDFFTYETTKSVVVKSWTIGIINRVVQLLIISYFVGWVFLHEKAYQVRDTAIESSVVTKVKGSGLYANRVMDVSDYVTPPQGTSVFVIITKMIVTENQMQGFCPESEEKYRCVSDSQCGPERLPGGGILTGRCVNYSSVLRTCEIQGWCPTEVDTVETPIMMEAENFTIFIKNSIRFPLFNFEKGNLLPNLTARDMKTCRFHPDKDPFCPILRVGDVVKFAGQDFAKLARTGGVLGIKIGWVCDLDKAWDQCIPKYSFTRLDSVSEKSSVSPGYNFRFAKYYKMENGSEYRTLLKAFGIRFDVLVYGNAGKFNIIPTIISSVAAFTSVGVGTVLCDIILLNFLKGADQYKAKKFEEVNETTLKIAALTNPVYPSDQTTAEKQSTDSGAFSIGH
Kind of experiment: Antagonist activity against recombinant human P2X purinoceptor 3 (P2X3 ). It is filed as functional.

As for `Cc1nc(/N=N/c2ccc(S(=O)(=O)O)cc2S(=O)(=O)O)c(COP(=O)(O)O)c(C=O)c1O`, the EC50 turned out to be 10 µM at P2X purinoceptor 4 and 1.7 µM at P2X purinoceptor 3.

The EC50 is the concentration that produces a half-maximal response.
